# Measured values reported in patent US6417174B1, “Inhibitors of β-lactamases and uses therefor” (Northwestern University, priority 1997, dated 2002).
# The chains behind the UniProt entries cited, without tags or fusion partners. Residues count along the entry.
# UniProt P00811, 20-377: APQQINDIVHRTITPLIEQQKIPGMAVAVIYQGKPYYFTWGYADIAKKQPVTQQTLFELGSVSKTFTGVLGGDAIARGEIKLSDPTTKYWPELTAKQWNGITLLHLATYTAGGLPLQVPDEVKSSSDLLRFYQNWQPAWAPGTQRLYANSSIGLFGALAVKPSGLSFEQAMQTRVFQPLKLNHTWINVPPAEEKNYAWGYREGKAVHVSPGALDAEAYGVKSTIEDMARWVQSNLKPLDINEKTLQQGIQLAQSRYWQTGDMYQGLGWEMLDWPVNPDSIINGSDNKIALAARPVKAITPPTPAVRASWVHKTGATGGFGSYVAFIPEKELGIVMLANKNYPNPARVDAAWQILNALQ
# Target: AmpC β-lactamase from E. coli (Escherichia coli, UniProt P00811)
# Assay: biochemical
compound,measurement,value
"OB(O)c1cccs1 [TH2B, thiophene-2-boronic acid]",Ki,3.3 µM
